According to patent publication US20220313640A1 (Concert Pharmaceuticals, Inc., priority 2019, published 2022):

Test: Single Ascending Dose (SAD) study plasma PK in healthy volunteers
Format: in vivo, human
Details: administration following consumption of food versus fasted
Protocol: The 0.5, 2, 3, and 4 g doses were evaluated under fasted conditions (after an overnight fast) while the 1 g dose was evaluated under both fasted and fed conditions (within 30 minutes of consumption of a meal) in a crossover design. […] Blood samples for PK analysis were obtained at several time points after dose administration. Safety assessments included monitoring of adverse events and clinical laboratory testing including monitoring of kidney function.

food effect on rate of absorption: delayed tmax and lower Cmax
SMILES: [2H][C@@](N)(CO)C(=O)O [Compound 100, (2R)-2-amino-2-deutero-3-hydroxy-propanoic acid]
